# US20230159442A1 (published 2023)
# Assay: Saturated aqueous solubility determination
substance,measurement,setting,value
creatine amide ethyl ester,Solubility,"deionized water, 25° C., 1.5 hour",>600 mg/mL
same,Ratio (relative to CM),solubility relative to creatine monohydrate,>29
